Data as given in ChEMBL document CHEMBL5360566, “Design, synthesis and biological evaluation of novel indolin-2-one derivatives as potent second-generation TRKs inhibitors” (Eur J Med Chem, 2023).
Calls of active or inactive are those of the source. No cut-off for these calls is given here.

Amino acid sequences for entries named in this document (tags omitted).
UniProt Q16620, whole entry, looked up: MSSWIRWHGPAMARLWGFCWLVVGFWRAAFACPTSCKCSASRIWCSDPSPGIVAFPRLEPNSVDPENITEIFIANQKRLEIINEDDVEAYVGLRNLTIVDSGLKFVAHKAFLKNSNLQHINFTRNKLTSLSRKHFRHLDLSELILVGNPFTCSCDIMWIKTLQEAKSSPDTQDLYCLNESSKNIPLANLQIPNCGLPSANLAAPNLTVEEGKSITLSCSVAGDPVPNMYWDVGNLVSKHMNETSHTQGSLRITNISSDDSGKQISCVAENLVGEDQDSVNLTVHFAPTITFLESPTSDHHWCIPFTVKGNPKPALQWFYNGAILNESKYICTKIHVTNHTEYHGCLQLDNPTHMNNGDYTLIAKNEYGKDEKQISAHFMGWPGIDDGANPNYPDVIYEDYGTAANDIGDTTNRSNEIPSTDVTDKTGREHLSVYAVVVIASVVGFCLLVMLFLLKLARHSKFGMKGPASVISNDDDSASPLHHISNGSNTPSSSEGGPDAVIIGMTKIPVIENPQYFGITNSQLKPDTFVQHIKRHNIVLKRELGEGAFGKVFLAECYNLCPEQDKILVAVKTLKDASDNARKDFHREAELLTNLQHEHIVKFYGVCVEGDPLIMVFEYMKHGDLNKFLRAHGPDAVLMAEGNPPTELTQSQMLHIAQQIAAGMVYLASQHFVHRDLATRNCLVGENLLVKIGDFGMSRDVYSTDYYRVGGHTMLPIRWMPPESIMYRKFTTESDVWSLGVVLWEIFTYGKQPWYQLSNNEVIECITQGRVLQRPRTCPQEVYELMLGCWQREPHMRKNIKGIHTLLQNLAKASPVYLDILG

Target: BDNF/NT-3 growth factors receptor (Homo sapiens) (UniProt Q16620)
Test: Inhibition of human recombinant His-tagged TRKB (526 to 838 residues) expressed in insect cells at 1 uM relative to control
Conditions: Insect cell

inhibition: Active
SMILES: COc1ccc(F)cc1CNc1ccc2c(c1)/C(=C/c1cnc[nH]1)C(=O)N2
